Data: ChEMBL document CHEMBL1124049, “Synthesis and biological characterization of pyridohomotropanes. Structure-activity relationships of conformationally restricted nicotinoids” (J Med Chem, 1988)

The chains behind the UniProt entries cited, without tags or fusion partners. Where a name states a change or a piece, a line headed by the entry shows the natural chain unless it says otherwise. Residues count along the entry.
UniProt P02710, 25-461 limits assumed: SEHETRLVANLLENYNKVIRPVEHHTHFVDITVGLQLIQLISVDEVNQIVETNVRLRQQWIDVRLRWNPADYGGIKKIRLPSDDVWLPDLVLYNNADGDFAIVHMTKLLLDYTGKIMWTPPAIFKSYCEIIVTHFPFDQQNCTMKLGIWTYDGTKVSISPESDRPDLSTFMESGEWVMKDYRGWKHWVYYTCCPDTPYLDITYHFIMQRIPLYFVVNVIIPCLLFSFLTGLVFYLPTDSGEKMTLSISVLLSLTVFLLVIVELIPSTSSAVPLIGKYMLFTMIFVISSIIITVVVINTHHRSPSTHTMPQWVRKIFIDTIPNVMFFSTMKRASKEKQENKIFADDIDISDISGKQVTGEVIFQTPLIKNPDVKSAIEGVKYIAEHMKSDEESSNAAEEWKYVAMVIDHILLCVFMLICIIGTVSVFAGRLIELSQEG
UniProt P02712, 25-493 limits assumed: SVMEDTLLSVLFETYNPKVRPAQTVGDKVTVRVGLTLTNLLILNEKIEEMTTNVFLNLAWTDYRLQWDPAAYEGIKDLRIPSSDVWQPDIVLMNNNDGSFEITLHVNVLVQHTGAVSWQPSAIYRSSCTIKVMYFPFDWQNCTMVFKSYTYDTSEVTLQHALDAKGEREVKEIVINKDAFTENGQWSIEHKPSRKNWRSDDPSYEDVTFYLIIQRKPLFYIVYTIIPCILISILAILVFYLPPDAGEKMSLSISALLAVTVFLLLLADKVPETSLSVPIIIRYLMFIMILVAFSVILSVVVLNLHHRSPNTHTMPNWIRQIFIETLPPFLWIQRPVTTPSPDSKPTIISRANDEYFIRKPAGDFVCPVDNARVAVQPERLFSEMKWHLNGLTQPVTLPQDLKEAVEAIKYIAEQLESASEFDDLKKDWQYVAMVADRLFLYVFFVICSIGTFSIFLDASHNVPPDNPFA
UniProt P02718, 22-522 limits assumed: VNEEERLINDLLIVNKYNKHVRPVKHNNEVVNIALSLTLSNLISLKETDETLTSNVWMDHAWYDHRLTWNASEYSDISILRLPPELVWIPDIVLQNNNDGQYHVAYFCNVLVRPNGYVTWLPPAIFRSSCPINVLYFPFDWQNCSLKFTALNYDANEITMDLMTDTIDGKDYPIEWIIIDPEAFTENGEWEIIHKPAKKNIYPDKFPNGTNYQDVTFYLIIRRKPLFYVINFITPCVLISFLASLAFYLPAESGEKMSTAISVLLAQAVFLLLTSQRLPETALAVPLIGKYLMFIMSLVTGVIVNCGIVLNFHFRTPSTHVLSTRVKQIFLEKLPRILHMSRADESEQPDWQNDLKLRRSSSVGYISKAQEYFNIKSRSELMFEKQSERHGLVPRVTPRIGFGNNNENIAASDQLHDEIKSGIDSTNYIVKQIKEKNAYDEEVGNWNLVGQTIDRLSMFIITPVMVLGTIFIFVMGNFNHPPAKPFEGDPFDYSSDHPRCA
UniProt P04757: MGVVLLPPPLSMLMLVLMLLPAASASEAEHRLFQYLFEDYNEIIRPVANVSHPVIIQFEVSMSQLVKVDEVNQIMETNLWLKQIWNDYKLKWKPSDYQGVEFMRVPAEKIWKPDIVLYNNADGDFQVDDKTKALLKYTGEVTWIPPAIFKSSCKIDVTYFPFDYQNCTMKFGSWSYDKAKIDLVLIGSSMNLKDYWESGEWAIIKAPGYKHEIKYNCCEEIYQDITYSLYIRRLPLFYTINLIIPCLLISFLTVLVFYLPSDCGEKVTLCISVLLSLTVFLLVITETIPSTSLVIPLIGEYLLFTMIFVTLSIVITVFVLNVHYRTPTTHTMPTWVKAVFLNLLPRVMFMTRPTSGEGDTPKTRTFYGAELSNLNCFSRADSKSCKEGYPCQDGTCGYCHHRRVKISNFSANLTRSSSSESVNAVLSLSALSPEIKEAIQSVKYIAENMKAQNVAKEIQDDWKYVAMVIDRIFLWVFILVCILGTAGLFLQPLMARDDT
UniProt P12389: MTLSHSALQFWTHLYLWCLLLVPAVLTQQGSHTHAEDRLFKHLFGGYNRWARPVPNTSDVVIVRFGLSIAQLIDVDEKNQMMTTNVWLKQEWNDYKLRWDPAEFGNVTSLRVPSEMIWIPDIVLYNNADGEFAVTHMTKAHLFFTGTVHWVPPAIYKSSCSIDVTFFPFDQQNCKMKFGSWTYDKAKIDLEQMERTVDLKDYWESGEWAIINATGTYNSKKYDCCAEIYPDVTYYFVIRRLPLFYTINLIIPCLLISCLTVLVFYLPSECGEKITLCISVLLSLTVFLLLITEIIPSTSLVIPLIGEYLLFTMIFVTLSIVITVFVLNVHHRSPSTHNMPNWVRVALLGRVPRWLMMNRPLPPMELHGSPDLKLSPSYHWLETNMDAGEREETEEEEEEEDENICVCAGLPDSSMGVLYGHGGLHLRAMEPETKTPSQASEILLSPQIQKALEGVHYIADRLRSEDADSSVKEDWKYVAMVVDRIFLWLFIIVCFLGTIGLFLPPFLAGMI
UniProt P12390: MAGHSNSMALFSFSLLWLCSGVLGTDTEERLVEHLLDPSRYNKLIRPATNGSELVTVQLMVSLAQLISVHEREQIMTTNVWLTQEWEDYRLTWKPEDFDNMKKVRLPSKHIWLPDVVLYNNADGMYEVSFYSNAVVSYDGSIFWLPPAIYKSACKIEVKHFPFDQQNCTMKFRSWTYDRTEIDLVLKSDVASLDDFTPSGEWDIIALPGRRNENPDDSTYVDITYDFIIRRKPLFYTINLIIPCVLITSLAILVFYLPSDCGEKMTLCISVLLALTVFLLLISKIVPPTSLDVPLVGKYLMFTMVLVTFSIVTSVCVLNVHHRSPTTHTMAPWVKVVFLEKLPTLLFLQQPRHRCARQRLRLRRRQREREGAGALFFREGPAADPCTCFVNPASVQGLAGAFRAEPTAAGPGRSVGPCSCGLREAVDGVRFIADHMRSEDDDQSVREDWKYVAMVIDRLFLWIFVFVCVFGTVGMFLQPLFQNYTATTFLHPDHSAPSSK
UniProt P12391: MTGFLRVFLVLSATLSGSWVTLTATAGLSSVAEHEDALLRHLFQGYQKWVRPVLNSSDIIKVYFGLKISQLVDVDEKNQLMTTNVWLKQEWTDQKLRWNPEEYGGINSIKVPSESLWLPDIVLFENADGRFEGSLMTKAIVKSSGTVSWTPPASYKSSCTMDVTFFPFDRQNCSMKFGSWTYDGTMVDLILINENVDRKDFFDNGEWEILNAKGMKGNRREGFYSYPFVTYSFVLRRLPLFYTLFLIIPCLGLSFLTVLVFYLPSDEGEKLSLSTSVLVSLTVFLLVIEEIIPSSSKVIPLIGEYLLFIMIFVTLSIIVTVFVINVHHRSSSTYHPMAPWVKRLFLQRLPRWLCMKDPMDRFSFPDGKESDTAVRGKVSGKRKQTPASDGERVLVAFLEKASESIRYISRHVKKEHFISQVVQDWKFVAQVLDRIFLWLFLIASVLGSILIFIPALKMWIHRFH
UniProt P12392: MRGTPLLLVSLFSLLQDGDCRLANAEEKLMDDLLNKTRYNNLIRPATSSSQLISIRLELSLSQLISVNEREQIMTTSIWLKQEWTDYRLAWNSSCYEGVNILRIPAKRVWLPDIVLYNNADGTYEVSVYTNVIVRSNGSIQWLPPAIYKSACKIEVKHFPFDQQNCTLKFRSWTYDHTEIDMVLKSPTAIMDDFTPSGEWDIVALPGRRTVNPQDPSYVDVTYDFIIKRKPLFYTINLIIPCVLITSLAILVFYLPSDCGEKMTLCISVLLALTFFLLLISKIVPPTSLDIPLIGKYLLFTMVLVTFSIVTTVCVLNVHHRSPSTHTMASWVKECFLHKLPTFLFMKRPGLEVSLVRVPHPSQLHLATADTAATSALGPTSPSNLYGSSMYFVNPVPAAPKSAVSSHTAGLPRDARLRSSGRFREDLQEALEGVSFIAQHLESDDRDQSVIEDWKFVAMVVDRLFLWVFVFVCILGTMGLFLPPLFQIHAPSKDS
UniProt P20420: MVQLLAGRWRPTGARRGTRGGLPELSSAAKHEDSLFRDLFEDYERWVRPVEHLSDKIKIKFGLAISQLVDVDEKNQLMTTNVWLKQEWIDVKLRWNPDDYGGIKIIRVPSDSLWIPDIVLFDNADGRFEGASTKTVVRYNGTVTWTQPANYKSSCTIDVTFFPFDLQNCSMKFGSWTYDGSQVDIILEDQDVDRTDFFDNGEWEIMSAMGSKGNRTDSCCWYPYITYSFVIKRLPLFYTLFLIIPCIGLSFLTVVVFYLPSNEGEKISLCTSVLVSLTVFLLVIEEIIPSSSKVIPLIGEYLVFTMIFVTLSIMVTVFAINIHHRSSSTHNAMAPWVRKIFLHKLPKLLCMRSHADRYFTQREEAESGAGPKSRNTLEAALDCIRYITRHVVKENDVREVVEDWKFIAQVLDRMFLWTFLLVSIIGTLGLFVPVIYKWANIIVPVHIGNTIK
UniProt P43143: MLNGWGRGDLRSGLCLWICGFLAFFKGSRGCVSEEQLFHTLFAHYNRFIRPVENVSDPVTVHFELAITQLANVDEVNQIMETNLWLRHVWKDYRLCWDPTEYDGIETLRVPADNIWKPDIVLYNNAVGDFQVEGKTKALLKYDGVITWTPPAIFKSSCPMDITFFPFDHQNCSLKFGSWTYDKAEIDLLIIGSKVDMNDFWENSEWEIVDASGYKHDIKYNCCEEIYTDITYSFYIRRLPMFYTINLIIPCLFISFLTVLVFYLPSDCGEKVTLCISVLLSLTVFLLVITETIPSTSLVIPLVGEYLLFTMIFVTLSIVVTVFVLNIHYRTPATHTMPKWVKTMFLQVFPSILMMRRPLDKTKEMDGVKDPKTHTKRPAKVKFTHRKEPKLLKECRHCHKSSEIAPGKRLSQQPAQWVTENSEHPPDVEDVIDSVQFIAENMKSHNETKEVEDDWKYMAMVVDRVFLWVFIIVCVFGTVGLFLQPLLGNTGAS
UniProt P43144: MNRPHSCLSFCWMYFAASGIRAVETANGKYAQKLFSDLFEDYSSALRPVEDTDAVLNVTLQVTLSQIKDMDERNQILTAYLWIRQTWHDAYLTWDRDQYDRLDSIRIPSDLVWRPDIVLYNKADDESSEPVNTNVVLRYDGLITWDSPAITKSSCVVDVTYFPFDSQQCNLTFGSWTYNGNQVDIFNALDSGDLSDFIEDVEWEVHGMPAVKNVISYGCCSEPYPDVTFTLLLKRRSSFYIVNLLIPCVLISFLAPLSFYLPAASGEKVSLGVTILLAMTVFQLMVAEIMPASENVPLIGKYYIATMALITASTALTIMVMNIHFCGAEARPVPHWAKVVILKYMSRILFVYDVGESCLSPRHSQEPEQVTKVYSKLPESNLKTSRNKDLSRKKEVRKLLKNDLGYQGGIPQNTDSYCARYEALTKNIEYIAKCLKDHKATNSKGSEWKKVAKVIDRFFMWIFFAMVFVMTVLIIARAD
UniProt Q05941: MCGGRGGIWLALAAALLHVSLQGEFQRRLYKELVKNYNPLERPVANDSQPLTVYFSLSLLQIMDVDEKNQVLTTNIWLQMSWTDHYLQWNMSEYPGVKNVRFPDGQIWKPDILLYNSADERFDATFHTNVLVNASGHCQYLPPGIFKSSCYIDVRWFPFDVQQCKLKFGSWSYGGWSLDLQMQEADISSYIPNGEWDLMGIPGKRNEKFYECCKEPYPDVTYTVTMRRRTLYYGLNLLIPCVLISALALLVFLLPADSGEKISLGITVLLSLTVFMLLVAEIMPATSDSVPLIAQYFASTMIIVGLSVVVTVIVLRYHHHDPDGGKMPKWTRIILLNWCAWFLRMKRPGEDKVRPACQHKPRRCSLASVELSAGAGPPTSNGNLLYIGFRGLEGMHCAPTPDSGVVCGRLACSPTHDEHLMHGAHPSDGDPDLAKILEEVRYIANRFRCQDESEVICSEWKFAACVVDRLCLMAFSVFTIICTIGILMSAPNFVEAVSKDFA
UniProt Q9JLB5: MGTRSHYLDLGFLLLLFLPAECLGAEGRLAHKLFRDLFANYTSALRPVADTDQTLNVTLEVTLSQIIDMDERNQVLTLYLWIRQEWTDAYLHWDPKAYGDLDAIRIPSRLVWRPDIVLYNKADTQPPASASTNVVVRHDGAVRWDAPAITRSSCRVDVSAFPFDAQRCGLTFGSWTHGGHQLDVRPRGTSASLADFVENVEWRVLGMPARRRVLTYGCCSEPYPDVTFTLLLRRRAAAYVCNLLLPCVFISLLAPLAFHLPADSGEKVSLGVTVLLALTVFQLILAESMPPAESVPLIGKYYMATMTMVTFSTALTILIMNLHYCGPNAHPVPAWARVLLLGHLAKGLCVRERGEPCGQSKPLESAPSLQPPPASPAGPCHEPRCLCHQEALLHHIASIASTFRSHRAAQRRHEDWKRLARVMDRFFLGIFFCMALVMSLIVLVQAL

Experiments:
[1] = biological target: Acetylcholine receptor (Torpedo californica, UniProt P02710+P02712+P02718+P02714); experiment: Inhibition of [3H]MCC binding to torpedo electroplax membranes
In short: (§1)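 Membranes from whole rat brain or Torpedo electric organ, homogenized in 30 volumes 0.05 M NaH2PO4 pH 7.0 and spun at 50000g for 30 min. Each tube held 2 mg brain protein or 1 mg electric organ protein, 1 × 10⁻⁹ M radioligand (final), and varied agent concentrations in 0.05 M NaPO4 pH 7.0.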

[2] = biological target: Neuronal acetylcholine receptor (UniProt P04757+P09483+P12389+P12390+P12391+P12392+P20420+P43143+P43144+Q05941+Q9JLB5); experiment: Inhibition of [3H]MCC binding to rat brain membranes; type: cell membranes, Membrane; in short: as §1

## CC(=O)C1=CCCC2CCC1N2 (configuration not stated)
[1]
  IC50: 0.1 nM
[2]
  IC50: 10 nM
